{"source": "patent US6171786A", "about": "“Methods for preventing multidrug resistance in cancer cells” (priority 1996, dated 2001)", "system": "MDR1 expression", "experiment": "Inhibition of cytotoxic drug-induced MDR1 expression by protein kinase inhibitors (cDNA-PCR)", "conditions": "concentration not stated", "data": [{"substance": "neomycin sulfate", "values": [{"measurement": "inhibition of MDR1 induction by cytotoxic drugs", "result": "capable of inhibiting MDR1 induction by cytotoxic drugs"}]}]}
